The nature of data set [1]: Hygroscopicity study by Dynamic Vapour Sorption (DVS) profiles. It counts as physicochemical. As to the method: Hygroscopicity studies of salts were carried out by preparation of Dynamic Vapour Sorption (DVS) profiles, with a TA instrument Q5000 apparatus. After an initial stabilization period (samples are pre-dried at 60° C. under vacuum), isotherms (at 25° C.) were obtained for each sample: a moisture sorption from 0 to 95% relative humidity (RH) and moisture desorption from 95% RH to dryness. Both isotherms were performed in 5% and 10% humidity steps.
The relative humidity (RH) was controlled by a mixture of wet and dry nitrogen stream. The RH was held constant until the equilibrium had been obtained (constant weight) or until the maximum time has been reached, before changing the RH to the next level.

Data set [2] is described as follows: Oral bioavailability assay: plasma pharmacokinetics after single IV and PO administration. The note with it: male SD rats.
Data set [3] can be described thus: Solubility screen assay (nephelometry). To be noted: 37° C., 5% DMSO: 95% PBS buffer, maximum concentration in which compounds are soluble.

Take “tris(hydroxyethyl)ammonium (1R,3S)-3-((5-cyano-4-phenylthiazol-2-yl)carbamoyl)cyclopentane-1-carboxylate”: in data set [1] (DVS at 25° C., 85% RH), the “water adsorption (weight increase) at 85% RH” value was determined as 17.58%. The “water adsorption (weight increase) at 95% RH” value in data set [1] (DVS at 25° C., 95% RH) is 37.48%. Also, the “moisture content at 25% RH” value in data set [1] (DVS sorption isotherm at 25° C., 25% RH) is reported as 1.238%. Besides, the “moisture content at 55% RH” value in data set [1] (DVS sorption isotherm at 25° C., 55% RH) is listed as 2.308%. For the same substance, the “moisture content at 75% RH (variation in the moisture content)” value was found to be 3.44% in data set [1] (DVS sorption isotherm at 25° C.); 3.443% in data set [1] (DVS sorption isotherm at 25° C., listed as (1R-3S)-3-(5-cyano-4-phenyl-1,3-thiazol-2-ylcarbamoyl)cyclopentane carboxylic ac); 3.44% in data set [1] (DVS sorption isotherm at 25° C., listed as triethanolamine salt). Also, the “hygroscopicity (result in words)” value in data set [1] (DVS, usual drug storage conditions (<75% RH)) was “moderately hygroscopic”. The Clearance in data set [2] (iv 1 mg/Kg) turned out to be 4.85 mL/min/kg. Besides, the AUC last in data set [2] (iv 1 mg/Kg, plasma) is 3521.23 ng·h/mL; in data set [2] (po 5 mg/Kg, plasma), 9304.80 ng·h/mL. Also, the “F % (bioavailability)” value in data set [2] (po 5 mg/Kg vs iv 1 mg/Kg, from AUClast) is 53%. This substance had a Cmax in data set [2] (po 5 mg/Kg, solution in normal saline, plasma) of 4532.19 ng/mL. The substance further registered a Solubility in data set [3] of 1.3 µM.

A word on the Cmax: it is the highest concentration seen after dosing. As usually defined, the Solubility is the concentration that dissolves in the medium under given conditions. Read a low Solubility as little dissolved substance.

The record behind these values is patent publication US10583127B2, “Amine salt of (1R, 3S)-3-(5-cyano-4-phenyl-1,3- thiazol-2-ylcarbamoyl)cyclopentane carboxylic acid” (PALOBIOFARMA, S.L., priority 2017, dated 2020).
